Measured values taken from article PMC8595397, “Reproductive Regulation of PrRPs in Teleost: The Link Between Feeding and Reproduction” (Frontiers in Endocrinology, 2021).

Tested on: PrRPs, GnRH2 and GnRH3 mRNA in grass carp brain cells
Experiment: PrRPs and GnRH mRNA expression in primary brain cells
Type: cell-based
Details: E2 1 μM, 24 h, mean

Structure (SMILES): C[C@]12CC[C@@H]3c4ccc(O)cc4CC[C@H]3[C@@H]1CC[C@@H]2O [E2, seventeen β-estradiol]
- gnrh2 mRNA expression (CTR = 1): 1.02
